The results in this text go back to ChEMBL document CHEMBL4304816, “A Novel Biphenyl-based Chemotype of Retinoid X Receptor Ligands Enables Subtype and Heterodimer Preferences” (ACS Med Chem Lett, 2019).

Format in all cases: cell-based
The species entered for one assay is Homo sapiens. Description: Agonist activity at full-length human PPARgamma/RXR expressed in HEK293T cells at 25 uM after 14 to 16 hrs in presence of 1 uM rosiglitazone by dual-glo luciferase reporter gene assay relative to rosiglitazone. In general terms: A reporter such as luciferase makes a cellular process visible.
Assay [1] deals with T1, Retinoic acid receptor RXR-alpha (Homo sapiens) (UniProt P19793).
T1 sequence (whole entry): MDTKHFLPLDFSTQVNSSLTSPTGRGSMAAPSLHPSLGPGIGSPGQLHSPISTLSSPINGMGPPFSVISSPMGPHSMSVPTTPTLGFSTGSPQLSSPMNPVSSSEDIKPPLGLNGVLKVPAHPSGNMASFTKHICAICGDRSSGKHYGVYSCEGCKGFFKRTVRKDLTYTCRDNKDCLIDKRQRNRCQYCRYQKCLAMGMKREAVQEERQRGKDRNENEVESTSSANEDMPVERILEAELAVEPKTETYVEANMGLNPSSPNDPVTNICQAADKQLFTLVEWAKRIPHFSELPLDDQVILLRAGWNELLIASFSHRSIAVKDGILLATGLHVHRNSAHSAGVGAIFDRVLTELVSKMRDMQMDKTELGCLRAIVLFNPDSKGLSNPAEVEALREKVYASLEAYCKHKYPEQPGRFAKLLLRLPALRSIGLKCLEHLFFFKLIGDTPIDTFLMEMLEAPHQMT
The experiment in a line: Agonist activity at Gal4-LBD fused RXRalpha (unknown origin) expressed in HEK293T cells assessed as fold activation at 5 uM after 14 to 16 hrs by dual-Glo luciferase assay relative to untreated control.

For assay [2], the target named is T2, Retinoic acid receptor RXR-gamma (Homo sapiens) (UniProt P48443).
T2 sequence (whole entry): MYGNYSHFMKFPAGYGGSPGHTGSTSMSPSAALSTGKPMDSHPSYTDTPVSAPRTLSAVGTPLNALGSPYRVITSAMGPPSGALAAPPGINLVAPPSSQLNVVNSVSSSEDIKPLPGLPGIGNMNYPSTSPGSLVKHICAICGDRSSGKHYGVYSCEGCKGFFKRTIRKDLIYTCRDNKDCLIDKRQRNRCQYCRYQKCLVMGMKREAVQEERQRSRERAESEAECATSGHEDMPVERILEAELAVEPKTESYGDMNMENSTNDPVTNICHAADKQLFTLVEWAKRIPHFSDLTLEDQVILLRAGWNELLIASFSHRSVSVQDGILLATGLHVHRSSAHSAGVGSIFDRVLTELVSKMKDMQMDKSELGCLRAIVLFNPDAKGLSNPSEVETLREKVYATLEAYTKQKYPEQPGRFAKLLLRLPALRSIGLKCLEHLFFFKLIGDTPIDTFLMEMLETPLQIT
The experiment in a line: Agonist activity at Gal4-LBD fused RXRgamma (unknown origin) expressed in HEK293T cells assessed as fold activation at 5 uM after 14 to 16 hrs by dual-Glo luciferase assay relative to untreated control.

For assay [3], the target named is T3, Retinoic acid receptor RXR-beta (Homo sapiens) (UniProt P28702).
T3 sequence (whole entry): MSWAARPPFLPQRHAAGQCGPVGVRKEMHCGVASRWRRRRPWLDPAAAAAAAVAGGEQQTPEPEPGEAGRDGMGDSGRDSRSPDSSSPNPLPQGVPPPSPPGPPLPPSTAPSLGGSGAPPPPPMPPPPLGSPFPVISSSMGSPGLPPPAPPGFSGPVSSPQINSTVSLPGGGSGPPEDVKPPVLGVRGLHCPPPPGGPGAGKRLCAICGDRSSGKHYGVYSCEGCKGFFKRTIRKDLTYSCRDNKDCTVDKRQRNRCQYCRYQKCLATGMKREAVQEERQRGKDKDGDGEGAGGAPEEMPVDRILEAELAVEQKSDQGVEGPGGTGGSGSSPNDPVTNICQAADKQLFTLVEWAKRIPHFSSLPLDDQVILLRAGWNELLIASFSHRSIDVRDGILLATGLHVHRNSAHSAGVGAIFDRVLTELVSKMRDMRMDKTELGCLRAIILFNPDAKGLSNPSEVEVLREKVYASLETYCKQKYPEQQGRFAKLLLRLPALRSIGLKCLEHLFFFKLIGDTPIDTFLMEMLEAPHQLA
Description: Agonist activity at Gal4-LBD fused RXRbeta (unknown origin) expressed in HEK293T cells assessed as fold activation at 5 uM after 14 to 16 hrs by dual-Glo luciferase assay relative to untreated control.

For assay [4], the target named is T2, Retinoic acid receptor RXR-gamma (Homo sapiens). The experiment in a line: Agonist activity at Gal4-LBD fused RXRgamma (unknown origin) expressed in HEK293T cells assessed as fold activation at 1 uM after 14 to 16 hrs by dual-Glo luciferase assay relative to untreated control.
The target of assay [5] is T1, Retinoic acid receptor RXR-alpha (Homo sapiens). Description: Agonist activity at Gal4-LBD fused RXRalpha (unknown origin) expressed in HEK293T cells assessed as fold activation at 1 uM after 14 to 16 hrs by dual-Glo luciferase assay relative to untreated control.
Assay [6] has as its target T3, Retinoic acid receptor RXR-beta (Homo sapiens). The experiment in a line: Agonist activity at Gal4-LBD fused RXRbeta (unknown origin) expressed in HEK293T cells assessed as fold activation at 1 uM after 14 to 16 hrs by dual-Glo luciferase assay relative to untreated control.

With `O=C(O)c1cccc(-c2cc(Cl)cc(Cl)c2)c1`, in the assay filed under Homo sapiens, the Activity is 42%.
Turning to `CC(C)(C)c1cc(-c2ccc(CC(=O)O)cc2)cc(C(C)(C)C)c1`, the values for the fold change (FC) in assay [1], in assay [2] and in assay [3] were 39, 17 and 94, respectively.
As to `Cc1cc(-c2cc(C(F)(F)F)cc(C(F)(F)F)c2)ccc1CC(=O)O`, the figures for the fold change (FC) in assay [4], in assay [5] and in assay [6] were 8, 24 and 59, respectively.
